In patent US20180258175A1 (ABLEXIS, published 2018):

Target: T1, native CD115 on OCI-AML5 cells (UniProt P07333)
T1 construct: whole, on cells; cell line endogenous receptor; also called CD115 expressed on OCI-AML5 cells; CD115 expressing AML5 cells
Test: FACS, supernatant on OCI-AML5 cells

B1: CCL-238A (antibody, V domains shown)
VH: QVQLVQSGAEVKKPGASVKVSCKASGYTFTGYYMHWVRQAPGQGLEWMVWINPNSGGTNYAQKFQGRVTMTRDTSISTAYMELSRLRSDDTAVYYCARGRLTFFDYWGQGTLVTVSS
VL: not shown
notes: AlivaMab chimeric IgG, human lambda LC
binding result: binds
